Patent US5246940A, “Substituted N-biphenylyl lactams” (Ortho Pharmaceutical Corporation, priority 1993, dated 1993)
Where two headings read alike, the source gives them in different places.

Protein sequences, listed by entry. Tags and fused reporters are not part of them.
UniProt P34976, whole entry: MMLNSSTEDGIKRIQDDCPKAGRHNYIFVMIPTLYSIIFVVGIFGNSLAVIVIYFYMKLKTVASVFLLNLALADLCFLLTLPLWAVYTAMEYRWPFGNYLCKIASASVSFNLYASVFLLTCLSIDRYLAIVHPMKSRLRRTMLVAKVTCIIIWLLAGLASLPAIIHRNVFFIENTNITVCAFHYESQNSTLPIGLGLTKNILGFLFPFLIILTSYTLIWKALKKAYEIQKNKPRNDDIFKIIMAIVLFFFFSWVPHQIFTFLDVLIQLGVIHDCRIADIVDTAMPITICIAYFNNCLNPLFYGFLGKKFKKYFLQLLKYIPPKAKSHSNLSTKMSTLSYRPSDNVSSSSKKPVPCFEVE

Target: angiotensin II-induced vasoconstriction (Oryctolagus cuniculus, UniProt P34976)
Assay: Inhibition of Angiotensin II Dose-Response in Rabbit Thoracic Aorta
Design: from tissue; host or cells: thoracic aorta rings of New Zealand white rabbits; species or system New Zealand white rabbits
Details: contraction, 95% C.L. in brackets
Protocol: Inhibition of Angiotensin II Dose-Response in Rabbit Thoracic Aorta
VII. Cellular and Biochemical pharmacology of DuP 753, an orally active antihypertensive agent. J. Pharmacol. Exp. Ther., 252, 726 (1990)]
Test compounds are diluted in dimethylsulfoxide vehicle such that a 50 μL addition to the tissue bath produces a final bath concentration of 1×10^-5 M compound in Krebs-bicarbonate buffer (baths contain 15 mL Krebs-bicarbonate buffer).
Procedure: 1.8 to 2.3 kg New Zealand white rabbits are sacrificed with an intravenous sodium pentobarbital overdose and the thoracic aorta gently dissected free from the aortic root to the level of the diaphragm, into ice cold Krebs bicarbonate buffer. The aorta is gently freed of clots and adventitia and cleanly cut into 5 mm segments. Each ring is suspended from a Gould isotonic force transducer in a tissue bath containing 15 mL oxygenated Krebs bicarbonate buffer regulated at 37° C. Initial tenison is adjusted to 4.0 g and equilibrated over three 20-minute wash periods with fresh Krebs-bicarbonate buffer to achieve a baseline tension of 3.0 g. […] […] […] In addition, since the test compounds are dissolved in DMSO, DMSO alone is tested in two rings as a vehicle control in each screening experiment.
Angiotensin II ED50 and ED90 is determined from the angiotensin II dose-response curves generated before and after test compound.

Substance angiotensin II [reference compound] has an EC50 (after DMSO vehicle, read-out: Mean ED50 for angiotensin II after DMSO vehicle treatment) of 1.88 nM and an EC50 (before DMSO vehicle, read-out: Mean ED50 for angiotensin II before DMSO vehicle treatment) of 1.02 nM.
